Assay results taken from PubChem BioAssay AID1662 (Broad Institute, 2009).
Only a part is listed here, and it is no random draw. Activity calls are given as the source filed them.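 Rule for the calls: active = mean replicate score, as percent of positive control median, at least 50; inconclusive = mean below 50 but one replicate at or above 50; inactive = mean and every replicate below 50.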

Assay: kanamycin survival loss of SKKanGAS strain – BacTiter-Glo luminescence, streptokinase expression inhibitor project, primary screen (AID 1662);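 note: strain carries kanamycin resistance gene driven by streptokinase promoter and grows in 40 µg/ml kanamycin; loss of luminescence reflects streptokinase promoter inhibition or plain growth inhibition; 0% = median of DMSO wells and 100% = positive control at its reference dose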
Conditions: S. pyogenes SKKanGAS, kanamycin growth, 6 h, at 7.5 µM, active compounds read high

Structure (SMILES) | inhibition
ClCCSc1nnc(-c2cccnc2)o1 | inactive: 0.521%
CC(C)c1ccc(OP(=O)(Nc2ccccn2)Oc2ccccc2F)cc1 (stereo not given) | inactive: 0.623%
Nc1ccccc1[As](=O)(O)c1ccccc1 | inactive: -1.12%
O=C(O)COc1ccc([As](=O)(O)O)cc1[N+](=O)[O-] | inactive: 2.34%
CCOP1(=S)c2c(C)nn(CCC#N)c2N=C(c2ccccc2F)N1C (stereo not given) | inactive: -7.62%
O=P(Nc1nccs1)(c1ccccc1)c1nc2ccccc2s1 (stereo not given) | inactive: -30.3%
O=P(Nc1nccs1)(Oc1ccccc1)Oc1ccccc1 | inactive: -28.9%
CS(=O)(=O)c1cc([N+](=O)[O-])c2no[n+]([O-])c2c1 | inactive: -9.75%
N#CCCN(C(=O)COC(=O)C(O)(c1ccccc1)c1ccccc1)c1ccc(F)cc1 | inactive: -3.14%
CN(C(=O)Cc1ccccc1)[C@@H]1CC[C@]2(CCCO2)C[C@H]1N1CCCC1 | inactive: 1.11%
CCOP1(=S)c2c(C)nn(CCC#N)c2N=C(c2ccc(F)cc2)N1C (stereo not given) | inactive: -2.42%
CN(C)C(=O)c1cc([N+](=O)[O-])cc2c1-c1c(cc([N+](=O)[O-])cc1[N+](=O)[O-])C2=O | inactive: 31.1%
O=[N+]([O-])c1ccc2c(c1)nnn2O | inactive: 0.015%
CN(C(=O)Cc1ccc(Cl)c(Cl)c1)[C@H]1CC[C@@]2(CCCO2)C[C@@H]1N1CCCC1 | inactive: -2.59%
NC(=O)Nc1ccc([As](=O)(O)O)cc1 | inactive: -1.84%
O=[As](O)(c1cccc(O)c1)c1cccc(O)c1 | inactive: -7.82%
Cc1cccc(OCC(=O)OC2CN3CCC2CC3)c1 (stereo not given) | inactive: 1.73%
O=C(OC1CN2CCC1CC2)c1ccc(Cl)cc1 (stereo not given) | inactive: 3.64%
COc1cc(C(=O)NCC2(N3CCOCC3)CCCCC2)cc(Cl)c1OC(C)C | inactive: -5.13%
O=[As](O)(O)c1cccnc1 | inactive: -1.44%
CS(=O)(=O)c1ccc(Cl)c(NC(=O)COC(=O)C(O)(c2ccccc2)c2ccccc2)c1 | inactive: 1.22%
COc1cc(C2NCCC3(OCCO3)C2(C)C)cc(OC)c1OC (stereo not given) | inactive: 0.307%

Structure (SMILES) | inhibition
CCOP(=O)(Nc1cccc2ccccc12)OCC | inactive: 1.89%
Nc1cccc2c([As](=O)(O)O)cccc12 | inactive: 0.964%
Cc1ccc(NCCc2c([N+](=O)[O-])cc([N+](=O)[O-])cc2[N+](=O)[O-])cc1 | inactive: 10.5%
CCCOP(=S)(Nc1nc(N)cc(=O)[nH]1)OCCC | inactive: 28.6%
Clc1n[nH]nc1-c1nn[nH][15n]1 | inactive: 1.84%
CC(C)(C)C(=O)NC(Sc1ncccn1)C(Cl)(Cl)Cl (stereo not given) | inactive: 8.9%
O=P1(Nc2ccccn2)COc2ccccc2OC1 | inactive: -7.52%
CCC1=CC2Cc3nc4ccc(Cl)cc4c(N)c3C(C1)C2 (stereo not given) | inactive: 0.872%
CCOP(=O)(NC(=NC(C)c1ccccc1)NC(C)c1ccccc1)OCC (stereo not given) | inactive: -1.34%
CN(CCCl)Cc1cc(Cl)c(NC2=NCCN2)c(Cl)c1 | inactive: -4.87%
CCOP(=O)(Nc1ccc(C)cn1)OCC | inactive: -1.17%
CC(C)/C=N\N=C(\N)N[N+](=O)[O-] | inactive: -0.0345%
CN(C(=O)Cc1ccc(Cl)c(Cl)c1)[C@@H]1CCCC[C@H]1N1CCCC1 | inactive: -3.7%
O=[As](O)(c1ccccc1Br)c1ccccc1Br | inactive: 3.64%
CC1(CBr)Cn2c(nc3ccccc3c2=O)S1 (stereo not given) | inactive: -3.69%
COc1ccccc1CNC(=O)COC(=O)C(O)(c1ccccc1)c1ccccc1 | inactive: -2.36%
CN(C)C1(CNC(=O)c2ccc(S(C)(=O)=O)cc2)CCCCC1 | inactive: 4.3%
O=C(/C=C/c1ccccc1)OC1CN2CCC1CC2 (stereo not given) | inactive: 4.45%
Cc1nn(-c2ccccc2)c2c1P(=O)(N1CCOCC1)N(C)C(c1ccccc1)=N2 (stereo not given) | inactive: 2.75%
CC1CCC(C(C)C)C(OP(=O)(Nc2ccccn2)c2ccccc2)C1 (stereo not given) | inactive: -0.628%
Cc1ccc(C(=O)OC2CN3CCC2CC3)cc1 (stereo not given) | inactive: -1.41%
Nc1cccc([As](=O)(O)c2ccccc2)c1 | inactive: 0.337%

Structure (SMILES) | inhibition
O=[As](O)(c1cccs1)c1cccs1 | inactive: 16%
Cc1ccc(OCC(=O)OC2CN3CCC2CC3)cc1 (stereo not given) | inactive: 4.43%
O=P1(Nc2ncccn2)COc2ccccc2OC1 | inactive: -0.404%
O=P(Nc1nc2ccccc2s1)(c1ccccc1)c1ccccc1 | inactive: 14.5%
C[C@H]1OP(=O)(Oc2ccccc2)[C@H](O)[C@H](O)[C@H]1N=[N+]=[N-] (stereo not given in full) | inactive: -0.0634%
O=P(Nc1ccccn1)(c1ccc(Br)cc1)c1ccc(Br)cc1 | inactive: 2.17%
CN(C)C1(CNC(=O)c2ccc(Cl)c(S(N)(=O)=O)c2)CCCCC1 | inactive: -2.21%
O=C(OC1CN2CCC1CC2)c1cccc(Cl)c1 (stereo not given) | inactive: 0.527%
Nc1ccc([As](=O)(O)c2ccc([N+](=O)[O-])cc2)cc1 | inactive: 0.474%
C(Cc1nn[nH]n1)Cc1nn[nH]n1 | inactive: -0.795%
O=[As](O)(c1ccccc1)c1ccc(O)cc1 | inactive: -5.52%
O=[N+]([O-])c1ccc(O)c(/C=N/Nc2ccc([N+](=O)[O-])cc2[N+](=O)[O-])c1 | inactive: 9.23%
O=[N+]([O-])c1ncn(CCn2cnc([N+](=O)[O-])n2)n1 | inactive: -7.44%
CC(=O)NC(SC(=S)N(C)C)C(Cl)(Cl)Cl (stereo not given) | inactive: 8.14%
c1nnnn1CCn1cnnn1 | inactive: 0.626%
CC(C)C(=O)NC(Sc1ccccc1)C(Cl)(Cl)Cl (stereo not given) | inactive: -1.62%
O=P(Nc1nccs1)(c1ccccc1)c1ccccc1 | inactive: -7.08%
CC(C)(C)C(=O)NC(Sc1ccccc1)C(Cl)(Cl)Cl (stereo not given) | inactive: 4.91%
O=P1(Nc2nc3ccc(Cl)cc3s2)COc2ccccc2O1 (stereo not given) | inactive: -1.06%
CCOc1ccc(C2=NCC(CBr)S2)cc1 (stereo not given) | inactive: -7.31%
CC(=O)Nc1ccc([As](=O)(O)O)c(O)c1 | inactive: -14.2%
